The results in this text go back to EP1094711B1, “METHODS FOR ERADICATION OF NANOBACTERIA” (Nanobac Oy, priority 1998, dated 2000).

Each structure is given as a SMILES string. ≈ marks a conversion by molar mass, not a printed value.

For this assay, the system named is nanobacteria. As to the kind of experiment: Antibiotic sensitivity test by Minimal Inhibition Concentration (MIC), 96-well plates, absorbance at 650 nm. To be noted: light or radiation study, 288 h.

In the case of `NC[C@H]1O[C@H](O[C@H]2[C@H](O)[C@@H](O[C@H]3O[C@H](CO)[C@@H](O)[C@H](N)[C@H]3O)[C@H](N)C[C@@H]2N)[C@H](O)[C@@H](O)[C@@H]1O` [Kanamycin], for the setting “read-out: MIC 50”, the IC50 was 50 mg/L (≈ 103 µM). In addition, the IC90 (read-out: MIC 90) is 200 mg/L (≈ 413 µM).
